Assay results: article PMC10499793 (Nature Communications, 2023)

System: Cc1ncc(C[n+]2csc(CCO)c2C)c(N)n1
Experiment: purified protein
Settings: pH 7.2; 37.0 °C

## CcThi1 (Corallococcus sp. EGB)
  Km: 22.3 µM
